Data from patent US20100204182A1, “ECTONUCLEOTIDASE INHIBITORS” (RHEINISCHE FRIEDRICH-WILHELMS-UNIVERSITAT BONN, priority 2006, published 2010).

The chains behind the UniProt entries cited, without tags or fusion partners.
UniProt Q93086, whole entry, species assumed: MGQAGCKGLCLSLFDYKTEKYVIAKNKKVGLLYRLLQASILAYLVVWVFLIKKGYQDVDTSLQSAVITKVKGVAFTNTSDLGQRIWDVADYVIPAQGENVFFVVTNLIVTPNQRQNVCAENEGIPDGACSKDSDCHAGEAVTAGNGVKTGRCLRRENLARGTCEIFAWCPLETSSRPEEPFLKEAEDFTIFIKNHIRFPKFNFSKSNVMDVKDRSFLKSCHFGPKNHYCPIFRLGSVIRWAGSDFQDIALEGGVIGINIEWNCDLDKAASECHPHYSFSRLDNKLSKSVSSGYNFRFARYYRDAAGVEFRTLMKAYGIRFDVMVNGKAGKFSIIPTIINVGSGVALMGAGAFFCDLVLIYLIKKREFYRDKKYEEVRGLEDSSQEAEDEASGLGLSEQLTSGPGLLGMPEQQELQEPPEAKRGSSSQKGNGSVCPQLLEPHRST

Assays:
[1] = biological target: P2X5 (Homo sapiens, UniProt Q93086); settings: standard inhibitors; reference mark 15; read-out: P2X5 Ki ± SEM; cited from earlier work
[2] = biological target: T1, P2X2 (Homo sapiens, UniProt Q9UBL9); settings: standard inhibitors; reference mark 15; read-out: P2X2 Ki ± SEM; cited from earlier work
T1 sequence (Q9UBL9 1-471): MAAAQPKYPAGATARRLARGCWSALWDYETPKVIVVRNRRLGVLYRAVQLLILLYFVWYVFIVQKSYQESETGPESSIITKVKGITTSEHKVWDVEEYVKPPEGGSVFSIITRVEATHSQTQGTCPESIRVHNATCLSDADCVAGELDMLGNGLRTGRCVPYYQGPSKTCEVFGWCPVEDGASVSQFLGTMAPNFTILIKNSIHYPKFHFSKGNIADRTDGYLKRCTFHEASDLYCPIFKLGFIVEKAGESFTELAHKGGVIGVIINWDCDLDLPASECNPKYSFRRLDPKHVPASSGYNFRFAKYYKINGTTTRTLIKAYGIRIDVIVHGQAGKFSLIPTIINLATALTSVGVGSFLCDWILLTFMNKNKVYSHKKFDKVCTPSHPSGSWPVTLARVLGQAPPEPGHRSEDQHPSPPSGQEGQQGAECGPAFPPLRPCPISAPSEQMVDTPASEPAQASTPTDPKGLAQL

[3] = biological target: T2, P2X3 (Homo sapiens, UniProt P56373); settings: standard inhibitors; reference mark 15; read-out: P2X3 Ki ± SEM; cited from earlier work
T2 sequence (P56373 1-397): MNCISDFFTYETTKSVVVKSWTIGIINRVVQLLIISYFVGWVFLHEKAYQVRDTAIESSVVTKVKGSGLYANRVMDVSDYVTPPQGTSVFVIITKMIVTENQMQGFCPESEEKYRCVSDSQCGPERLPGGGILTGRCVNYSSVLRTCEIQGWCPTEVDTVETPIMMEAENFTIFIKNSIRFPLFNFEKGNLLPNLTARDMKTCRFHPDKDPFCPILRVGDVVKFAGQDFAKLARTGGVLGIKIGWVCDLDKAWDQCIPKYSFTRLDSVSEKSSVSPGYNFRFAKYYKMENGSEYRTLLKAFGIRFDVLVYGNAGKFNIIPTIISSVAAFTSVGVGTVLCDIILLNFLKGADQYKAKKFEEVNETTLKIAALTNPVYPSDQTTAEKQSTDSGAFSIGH

[4] = biological target: T3, rat NTPDase2 (Rattus norvegicus, UniProt O35795); test: Rat NTPDase2 inhibition, in-capillary electrophoresis method (standard compounds); type: biochemical; settings: read-out: NTPDase2 Ki ± SEM
T3 sequence (O35795 1-495): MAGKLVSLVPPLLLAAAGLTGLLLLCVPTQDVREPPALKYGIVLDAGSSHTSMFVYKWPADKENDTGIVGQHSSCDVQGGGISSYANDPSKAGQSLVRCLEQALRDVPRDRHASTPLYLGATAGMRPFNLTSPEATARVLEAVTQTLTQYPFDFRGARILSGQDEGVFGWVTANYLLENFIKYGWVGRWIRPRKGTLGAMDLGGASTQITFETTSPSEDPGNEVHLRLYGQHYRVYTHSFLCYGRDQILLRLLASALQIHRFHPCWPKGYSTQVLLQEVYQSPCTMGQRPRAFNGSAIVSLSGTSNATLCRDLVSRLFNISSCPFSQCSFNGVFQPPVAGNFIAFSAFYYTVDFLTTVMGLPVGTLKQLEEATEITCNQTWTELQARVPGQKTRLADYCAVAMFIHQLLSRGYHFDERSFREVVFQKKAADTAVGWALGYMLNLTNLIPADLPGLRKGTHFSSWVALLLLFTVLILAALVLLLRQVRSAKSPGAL

SMILES	Ki [1] [µM]	Ki [2] [µM]	Ki [3] [µM]	Ki [4] [µM]
Cc1nc(N=Nc2ccc(S(=O)(=O)O)cc2S(=O)(=O)O)c(COP(=O)(O)O)c(C=O)c1O [PPADS, pyridoxalphosphate-6-azophenyl-2′,4′-disulfonic acid]	0.2	1.6	0.2	
Nc1c(S(=O)(=O)O)cc(Nc2ccc(Nc3nc(Cl)nc(Nc4cccc(S(=O)(=O)O)c4)n3)c(S(=O)(=O)O)c2)c2c1C(=O)c1ccccc1C2=O [RB2, reactive blue 2]				24.2 ± 0.06
